The entries are a selection whose mix differs from that of the whole data set. Activity calls are given as the source filed them.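 The calls were made as follows: active = mean activation of at least 10% of the iron chelator positive control signal, with at least half of replicates also reaching 10%; inconclusive = mean and replicate majority disagree about reaching 10%; inactive = mean and most replicates under 10%.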

This test can be described thus: hypoxia response element reporter activation – cell-based, U2OS HRE-luciferase, luminescence, primary screen (AID 1910). The note with it: stronger effect = higher value, screened at 7.5 µM (by protocol), normalized: DMSO 0%, desferrioxamine 100%.
With `O=[N+]([O-])c1ccc(Nc2ccc(Oc3ccc([N+](=O)[O-])cc3[N+](=O)[O-])cc2)c([N+](=O)[O-])c1`, the activation is inactive: -1.86%.
Turning to `CCOC(=O)Nc1cccc([As](=O)(O)O)c1`, the activation was inactive: 0.084%.
As to `Cc1cc(SC(NC(=O)c2ccccc2)C(Cl)(Cl)Cl)nc(C(C)C)n1` (stereo unspecified), the activation was inactive: -0.205%.
As for `CCCCOc1ccc(C(=O)NCC2(N3CCCCC3)CCCCC2)cc1OC`, the activation is inactive: 0.463%.
Take `CCOC(=O)Nc1ccc([As](=O)(O)O)c(O)c1`: the activation is inactive: -0.184%.
In the case of `O=[N+]([O-])c1cc([N+](=O)[O-])c(-c2ccn[nH]2)s1`, the activation is inactive: -0.0685%.
`CCN(CC)C(=S)SC(NC=O)C(Cl)(Cl)Cl` (stereo unspecified): the activation was inactive: -0.206%.
As for `CC(C)NC(=O)NP(=O)(Oc1ccccc1)Oc1ccccc1`, the activation is inactive: -0.142%.
Consider `ClCCSc1nnc(-c2cccnc2)o1`, for which the activation is inactive: 0.839%.
Regarding `CC(C)c1ccc(OP(=O)(Nc2ccccn2)Oc2ccccc2F)cc1` (stereo unspecified), the activation was inactive: -0.46%.
On to `CC(Cc1ccc(O)cc1)NCC(O)c1cc(O)cc(O)c1` (stereo unspecified), for which the activation was inactive: -0.444%.
For `Cc1ccc(OP(=O)(Nc2ccc([N+](=O)[O-])cn2)Oc2ccc(C)cc2)cc1`, the activation was inactive: 0.118%.
As to `Cc1ccc2nc3c(c(C)c2c1)CC(C(Cl)Cl)S3` (stereo unspecified), the activation is inactive: 1.08%.
For `C[As](=O)(O)c1cccc(C(=O)O)c1`, the activation was inactive: 1.12%.
For the molecule `O=[As](O)(c1ccc(O)cc1)c1ccccc1O`, the activation is inactive: 0.11%.
The figure for `COc1ccc(N/C(=N/P(=O)(N2CCOCC2)N2CCOCC2)N2CCOCC2)cc1` is inactive: -0.387%.
`COc1cc(I)ccc1[As](=O)(O)O`: the activation is inactive: -0.311%.
On to `COc1ccc2nc(NP(=O)(c3ccccc3)c3ccccc3)sc2c1`, for which the activation is inactive: -0.0927%.
As to `Cc1c2c(nc3ccccc13)SC(C(Cl)Cl)C2` (stereo unspecified), the activation is inactive: 0.187%.
On to `Cc1cc(=O)[nH]c(N[N+](=O)[O-])n1`, for which the activation is inactive: 0.00345%.
Take `O=C(OC1CN2CCC1CC2)C12CC3CC(CC(C3)C1)C2` (stereo unspecified): the activation was inactive: 0.0869%.

The values are drawn from PubChem BioAssay AID1910 (Broad Institute, 2009).
